How the values were obtained:
activation of TGFβ = details: mouse, in vivo; cited from earlier work

Cc1cc(C)n(-c2cccc([C@H](CC(=O)O)CN3CC[C@@H](CCc4ccc5c(n4)NCCC5)C3)c2)n1 [GSK3008348, (S)-3-(3-(3,5-Dimethyl-1 H-pyrazol-1-yl)phenyl)-4-((R)-3-(2-(5,6,7,8-tetrahydro-1,8-naphthyridin-2-yl)ethyl)pyrrolidin-1-yl) butanoic acid]
Effect on activation of TGFβ (activation of TGFβ): inhibited the activation of TGFβ | Contact dermatitis, n (%) (1000 mcg nebulised, N=5): 1 (20) n (%) | Tooth extraction, n (%) (1000 mcg nebulised, N=5): 1 (20) n (%) | Serious adverse events (single nebulised 1000 mcg doses in two periods): no SAEs reported | Tolerability (single nebulised 1000 mcg doses, participants with IPF): well tolerated

Reference: publication PMC7099768, “A positron emission tomography imaging study to confirm target engagement in the lungs of patients with idiopathic pulmonary fibrosis following a single dose of a novel inhaled αvβ6 integrin inhibitor” (Respiratory Research, 2020)
